ChEMBL document CHEMBL4732039, “Introduction of a cyano group at the 2-position of an (R,S)-3-hydroxy-2-(phosphonomethoxy)propyl (HPMP) derivative of thymine elicits selective anti-HBV activity” (RSC Med Chem, 2021)

Assay: Selectivity index, ratio of CC50 for human HFF cells to EC50 for antiviral activity against HCMV AD169

## Nc1nc2c(ncn2COC(CO)CO)c(=O)[nH]1 [GANCICLOVIR]
  Ratio CC50/EC50: >175
